Laboratory results taken from publication PMC7438500 (Nature Communications, 2020).
“Also recorded” adds a separate entry of the source.

By UniProt entry, the sequences of proteins in these tests, tags left out.
UniProt Q92847, whole entry: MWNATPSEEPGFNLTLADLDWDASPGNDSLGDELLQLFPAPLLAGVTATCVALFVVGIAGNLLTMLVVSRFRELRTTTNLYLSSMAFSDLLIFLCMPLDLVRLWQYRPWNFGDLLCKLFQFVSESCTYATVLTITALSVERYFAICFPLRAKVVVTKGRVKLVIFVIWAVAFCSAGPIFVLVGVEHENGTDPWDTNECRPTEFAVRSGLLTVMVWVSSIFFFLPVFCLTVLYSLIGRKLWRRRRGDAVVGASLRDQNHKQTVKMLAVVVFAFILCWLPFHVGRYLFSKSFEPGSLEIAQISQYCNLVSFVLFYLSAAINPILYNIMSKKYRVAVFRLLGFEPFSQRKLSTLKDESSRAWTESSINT
UniProt Q92847, whole entry N188Q: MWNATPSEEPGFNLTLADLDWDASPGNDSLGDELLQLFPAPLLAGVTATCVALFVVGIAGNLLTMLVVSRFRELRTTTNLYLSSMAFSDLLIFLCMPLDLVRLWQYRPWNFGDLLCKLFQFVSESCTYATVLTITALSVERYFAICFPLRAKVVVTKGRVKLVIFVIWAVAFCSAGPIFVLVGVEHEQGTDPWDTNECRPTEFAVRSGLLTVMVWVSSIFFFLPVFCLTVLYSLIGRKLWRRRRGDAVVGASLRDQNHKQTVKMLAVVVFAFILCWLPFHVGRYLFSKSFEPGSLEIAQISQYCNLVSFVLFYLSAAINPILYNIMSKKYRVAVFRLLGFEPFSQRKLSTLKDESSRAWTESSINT

How the values were obtained:
[1] = biological target: T1, ghrelin receptor (Homo sapiens, UniProt Q92847); assay: Radioligand binding of [125I]-ghrelin and [125I]-des-acyl ghrelin; conditions: [125I]-des-acyl ghrelin; n=3
T1 construct: expressed in transfected cells; host or cells: HEK293 cells (membrane preparations, transient expression)

[2] = biological target: ghrelin receptor WT (Homo sapiens, UniProt Q92847, N188Q); assay: Intracellular Ca2+ concentration assay, WT receptor in CHO cells; assay type: cell-based; set-up: Full-length human ghrelin receptor was used for the mutagenesis; expressed in transfected cells; host or cells: CHO cells
Procedure: The positions of mutated amino acids and primers are listed in Supplementary Table 2.
Transfections were performed using the FuGENE HD transfection reagent (Promega). The next day, the transfected cells were collected and plated into 96-well black-wall assay microplates (Corning) at a density of 3 × 10^4 cells/well. After a 1-day incubation, the cells were incubated for 1 h with 100 μl of calcium indicator Fluo-4 from the FLIPR Calcium 5 Assay Kit (Molecular Devices) in Hank’s BSS containing 20 mM HEPES-NaOH (pH7.5) and 2.5 mM probenecid. Fifty-microliter aliquots of samples were tested to induce changes in fluorescence due to increased calcium concentration on a FlexStation3 (Molecular Devices). Maximum [Ca^2+]i changes were determined in quadruplicate (n = 4).

For des-acyl ghrelin, the “specific binding” value [1] was “too low to calculate the specific bindings; also recorded: did not bind to the ghrelin receptor at all” and the “activation of the ghrelin receptor” value [2] was “unable to activate the ghrelin receptor”.
